The other results are listed elsewhere or left out.
T1: LIN28A (human?, UniProt Q9H9Z2 1-209)
T1 sequence: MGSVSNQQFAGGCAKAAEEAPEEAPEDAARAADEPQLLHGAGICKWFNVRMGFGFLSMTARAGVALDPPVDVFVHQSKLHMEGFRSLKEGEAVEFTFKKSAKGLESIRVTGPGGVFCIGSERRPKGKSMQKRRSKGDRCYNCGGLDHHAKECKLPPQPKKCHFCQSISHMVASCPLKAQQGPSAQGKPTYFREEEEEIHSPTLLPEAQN

T2: CIRBP (Homo sapiens, UniProt Q14011 1-172)
T2 sequence: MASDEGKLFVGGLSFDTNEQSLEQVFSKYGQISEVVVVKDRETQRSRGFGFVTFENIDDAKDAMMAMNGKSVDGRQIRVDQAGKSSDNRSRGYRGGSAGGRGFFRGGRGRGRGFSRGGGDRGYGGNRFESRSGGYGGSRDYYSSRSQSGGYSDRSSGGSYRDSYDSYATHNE

T3: DHX36 (Homo sapiens, UniProt Q9H2U1 1-1008)
T3 sequence: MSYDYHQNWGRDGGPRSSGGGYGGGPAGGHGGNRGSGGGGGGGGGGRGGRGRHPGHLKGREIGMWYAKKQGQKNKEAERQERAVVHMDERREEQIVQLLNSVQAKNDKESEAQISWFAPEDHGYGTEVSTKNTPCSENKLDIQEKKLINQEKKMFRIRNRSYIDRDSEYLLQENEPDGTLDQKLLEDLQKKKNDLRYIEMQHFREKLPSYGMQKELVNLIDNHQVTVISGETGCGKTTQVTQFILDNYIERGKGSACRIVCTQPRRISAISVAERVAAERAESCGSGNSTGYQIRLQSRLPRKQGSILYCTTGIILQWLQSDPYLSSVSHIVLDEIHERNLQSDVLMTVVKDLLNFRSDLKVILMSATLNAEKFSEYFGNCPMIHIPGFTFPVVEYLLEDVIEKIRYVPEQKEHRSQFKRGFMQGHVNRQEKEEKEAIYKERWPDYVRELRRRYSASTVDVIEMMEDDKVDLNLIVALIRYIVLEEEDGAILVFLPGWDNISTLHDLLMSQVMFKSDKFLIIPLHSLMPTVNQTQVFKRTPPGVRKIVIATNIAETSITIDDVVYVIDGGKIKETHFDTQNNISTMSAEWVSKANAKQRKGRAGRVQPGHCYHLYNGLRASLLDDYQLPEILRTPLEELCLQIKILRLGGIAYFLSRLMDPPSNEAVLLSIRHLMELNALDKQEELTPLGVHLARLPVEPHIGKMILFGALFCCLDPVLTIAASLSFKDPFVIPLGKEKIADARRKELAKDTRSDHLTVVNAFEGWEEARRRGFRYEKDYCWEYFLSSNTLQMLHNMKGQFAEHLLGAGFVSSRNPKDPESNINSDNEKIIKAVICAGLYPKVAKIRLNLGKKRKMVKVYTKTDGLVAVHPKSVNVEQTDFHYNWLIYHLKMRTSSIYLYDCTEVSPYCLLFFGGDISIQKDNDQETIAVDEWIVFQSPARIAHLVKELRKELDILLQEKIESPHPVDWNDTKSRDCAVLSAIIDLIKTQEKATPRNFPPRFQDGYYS

B1: hsa-mir-548aq (structured_RNA)
RNA: GGGAACGUCAAAAGGAUGCUCGUUCCGCGGUGUACGAAGUUUCAGCUUUGCCAUUACUUUCAGUGGCAAAGCUGAAGCUUCGUGCAC
B2: hsa-mir-3663 (structured_RNA)
RNA: GGGAAAGAAAAUGGCUGCUGCUAUGGCAGGUGUACGAAGUUUCAGCCUCGGGUGGAUAAGUCUGAUCUGAGGCUGAAGCUUCGUGCAC
B3: hsa-mir-6510 (structured_RNA)
RNA: GGGACGGGUUAUUAACAUCGAUAGGAGGGGUGUACGAAGUUUCAGCGGAGUCCUCUAGACACCGCUGAAGCUUCGUGCAC
B4: hsa-mir-144 (structured_RNA)
RNA: GGGAAAACGGGAUCCGACAAUGCCCAAGGGUGUACGAAGUUUCAGCUGUAAGUUUGCGAUGAGACACUACAGCUGAAGCUUCGUGCAC
B5: NEAT1_ParasoR_ID16 (structured_RNA)
RNA: GGGAAUUCGCGGUAUGACACAACUAUCGGGUGUACGAAGUUUCAGCCACCCAAAGGGGUAAUUGUCCUACUGGUGGCUGAAGCUUCGUGCAC
B6: hsa-mir-3170 (structured_RNA)
RNA: GGGAACAUAGACAAAGCGCAGAAAGCCUGGUGUACGAAGUUUCAGCCAGUGUUAGCUCCAGAAGCAUUGGCUGAAGCUUCGUGCAC
B7: hsa-mir-3142 (structured_RNA)
RNA: GGGACUACGAGUGAAAUGAAUACACGCGGGUGUACGAAGUUUCAGCCUGCUGAAUCUUCAGAAAGGGCUGAAGCUUCGUGCAC
B8: hsa-mir-4326 (structured_RNA)
RNA: GGGACAUAAUGCUGCGUCGGAAUAAUCCGGUGUACGAAGUUUCAGCCAGACUCUGGCUGAAGCUUCGUGCAC
B9: hsa-mir-583 (structured_RNA)
RNA: GGGAAGACGUGGUCCGCUUCUCUAUAGCGGUGUACGAAGUUUCAGCUUACUGCAGGGAUCUUAGCAGUACGCUGAAGCUUCGUGCAC
B10: hsa-mir-4682 (structured_RNA)
RNA: GGGAUUAGGCCACGACAUUCUAGCUUUGGGUGUACGAAGUUUCAGCGUCUGUCACUGGGGAAGUCGCUGAAGCUUCGUGCAC
B11: hsa-mir-4330 (structured_RNA)
RNA: GGGAACAUGUAACCCGCCAAGACCUUAGGGUGUACGAAGUUUCAGCGAGGAUGCAGGAGAGGAAGGGGGCUUCUUUUUGACGCCUACUUCAUCAGCUGCUCCUCGCUGAAGCUUCGUGCAC
B12: hsa-mir-8086 (structured_RNA)
RNA: GGGAAGGUAUCGUAAGGAUCAGUCGAACGGUGUACGAAGUUUCAGCUGGUUAGCUUUUUUUUUUUUUUGAGAUGGAGUCUGGCUCGCUGAAGCUUCGUGCAC
B13: hsa-mir-935 (structured_RNA)
RNA: GGGAAGCUAAAUCCCUGCCGACGACAUGGGUGUACGAAGUUUCAGCCUCGGCCAUCCUCCGUCUGCCCAGGCUGAAGCUUCGUGCAC
B14: PARIS_ID43 (structured_RNA)
RNA: GGGAGAGCUUGAUGAGACUUGAGUACUAGGUGUACGAAGUUUCAGCCUGGAUCUAUUUCUGGAAAUUUUAGGCUCCAGGCUGAAGCUUCGUGCAC
B15: hsa-mir-4502 (structured_RNA)
RNA: GGGAAAGACUAGCCGUACGUAUCCAGUCGGUGUACGAAGUUUCAGCCUUUUUGCUGAUGGAGGGUCUUGCCUCCAUGGGGAUGGCUGGCUGAAGCUUCGUGCAC
B16: hsa-mir-5703 (structured_RNA)
RNA: GGGAAGGAUCGCCAUGAGAUUUGCAUUCGGUGUACGAAGUUUCAGCUCCCCUCAGGAGCUGAAGCUUCGUGCAC
B17: hsa-mir-154 (structured_RNA)
RNA: GGGAAACCAGAUUGCGGAUCAGAUACAAGGUGUACGAAGUUUCAGCCCUUCGCUUUAUUUGUGACGAAUCGCUGAAGCUUCGUGCAC
B18: hsa-mir-6070 (structured_RNA)
RNA: GGGACAAGGGGCUAGUAUCCACACCGGUGGUGUACGAAGUUUCAGCGGAGCUCUGUGCCUUUGGGUCCUGGUGAGCUCUGCUGAAGCUUCGUGCAC
B19: hsa-mir-6838 (structured_RNA)
RNA: GGGAAACGAUGUGGAGGGACAGCCUUGAGGUGUACGAAGUUUCAGCACUCCUAGGUCACGGAAGUGCUGAAGCUUCGUGCAC
B20: hsa-mir-3163 (structured_RNA)
RNA: GGGACAGAACAAAGUGCCACUAGAGUAAGGUGUACGAAGUUUCAGCAGACCUUCCUUCCUUGUCUGCUGAAGCUUCGUGCAC
B21: hsa-mir-4746 (structured_RNA)
RNA: GGGACCACUCUCGUUCAACGCGAAGUCCGGUGUACGAAGUUUCAGCCAGAGGCAUCGGGUCAGGCUGAAGCUUCGUGCAC
B22: hsa-mir-4679-1 (structured_RNA)
RNA: GGGAGCUGAGGCCAUCGGAUACAUCACAGGUGUACGAAGUUUCAGCUGCUUUGUUAGAAACAAAAAGCAGCUGAAGCUUCGUGCAC
B23: hsa-mir-3184 (structured_RNA)
RNA: GGGAACACGUUUAGGCAACCACAUCAAAGGUGUACGAAGUUUCAGCCUUUUGGAAAAUAGAAAAGGCUGAAGCUUCGUGCAC
B24: hsa-mir-4795 (structured_RNA)
RNA: GGGAGCCAUUGGAUCUACCAACUGUCGUGGUGUACGAAGUUUCAGCAUAUUGACACUAUAACAAUAAUGUCAAUAUGCUGAAGCUUCGUGCAC
B25: hsa-mir-631 (structured_RNA)
RNA: GGGACUCAGUAGCGUCUGAUAGGAGUCAGGUGUACGAAGUUUCAGCCAGCUACACAAGCUGGCUGAAGCUUCGUGCAC
B26: hsa-mir-1269a (structured_RNA)
RNA: GGGCAUCGUGAGCGGGAAUCUAAAAUUAGGUGUACGAAGUUUCAGCCCAAGUCUGACCACCUGAGGAAUGCCUGGGCUGAAGCUUCGUGCAC

Legend:
Test in all cases: FOREST: bead pull-down of RNA structure library v1, barcode microarray; U1A/LIN28A: 20 mM HEPES pH 7.5, 80 mM KCl, 20 mM NaCl, 10% glycerol, 2 mM DTT, 0.1 ug/uL BSA, 4 C; BG4/CIRBP/DHX36: 10 mM Tris-HCl pH 7.5, 100 mM KCl (or LiCl),; high values mean tight binding
LIN28A = molecular target: T1, LIN28A
CIRBP = molecular target: T2, CIRBP
DHX36 = molecular target: T3, DHX36

Binder	binding signal (LIN28A)	binding signal (CIRBP)	binding signal (DHX36)
B1	0.124 z-score	0.395 z-score	-0.0186 z-score
B2	0.109 z-score	1.63 z-score	0.381 z-score
B3	0.126 z-score	1.16 z-score	0.0757 z-score
B4	0.104 z-score	-0.559 z-score	-1.14 z-score
B5	0.119 z-score	0.343 z-score	-0.0473 z-score
B6	0.114 z-score	-0.304 z-score	-0.4 z-score
B7	0.134 z-score	0.949 z-score	-0.0849 z-score
B8	0.128 z-score	0.137 z-score	0.41 z-score
B9	0.135 z-score	-0.29 z-score	-1 z-score
B10	0.112 z-score	-0.703 z-score	0.105 z-score
B11	0.0903 z-score	0.997 z-score	1.61 z-score
B12	0.102 z-score	-0.408 z-score	-0.257 z-score
B13	0.0894 z-score	0.0532 z-score	-0.748 z-score
B14	0.102 z-score	-0.966 z-score	0.201 z-score
B15	0.134 z-score	0.178 z-score	0.103 z-score
B16	0.0955 z-score	0.606 z-score	-0.348 z-score
B17	0.109 z-score	0.0352 z-score	-0.494 z-score
B18	0.121 z-score	0.551 z-score	1.05 z-score
B19	0.115 z-score	1.33 z-score	0.204 z-score
B20	0.118 z-score	-0.333 z-score	-1.82 z-score
B21	0.11 z-score	-0.271 z-score	0.0261 z-score
B22	0.135 z-score	0.193 z-score	0.765 z-score
B23	0.124 z-score	-1.17 z-score	-0.221 z-score
B24	0.122 z-score	-0.708 z-score	1.38 z-score
B25	0.0977 z-score	0.12 z-score	-0.495 z-score
B26	0.122 z-score	-0.44 z-score	-0.359 z-score

— publication PMC7723054
